Each structure is given as a SMILES string.

Protein sequences, listed by entry. Tags and fused reporters are not part of them.
UniProt Q01827, whole entry: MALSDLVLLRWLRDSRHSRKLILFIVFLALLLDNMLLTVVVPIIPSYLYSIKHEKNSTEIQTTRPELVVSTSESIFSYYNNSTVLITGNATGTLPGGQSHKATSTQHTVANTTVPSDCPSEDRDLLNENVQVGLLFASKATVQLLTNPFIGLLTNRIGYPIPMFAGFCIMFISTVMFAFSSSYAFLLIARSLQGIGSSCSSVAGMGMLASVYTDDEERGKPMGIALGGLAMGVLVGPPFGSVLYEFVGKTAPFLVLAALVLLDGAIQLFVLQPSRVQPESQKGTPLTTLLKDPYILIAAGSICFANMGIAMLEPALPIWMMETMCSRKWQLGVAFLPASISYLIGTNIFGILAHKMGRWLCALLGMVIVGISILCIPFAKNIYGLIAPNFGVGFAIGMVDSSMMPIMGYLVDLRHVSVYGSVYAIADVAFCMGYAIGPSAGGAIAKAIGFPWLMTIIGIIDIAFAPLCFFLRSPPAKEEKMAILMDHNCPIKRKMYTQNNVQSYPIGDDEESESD

Format in all cases: tissue-based
Experiment [1] addresses Synaptic vesicular amine transporter (Rattus norvegicus) (UniProt Q01827). Briefly: Ratio of Ki for displacement of [3H]DTBZ from VMAT2 dihydrotetrabenazine binding site in rat brain synaptic vesicle to Ki for inhibition of [3H]dopamine uptake at VMAT2 in rat brain synaptic vesicle.
Experiment [2] addresses T1, Synaptic vesicular amine transporter (Rattus norvegicus, UniProt Q01827). Description: Inhibition of [3H]dopamine uptake at VMAT2 in rat brain synaptic vesicle by liquid scintillation spectroscopy.
Experiment [3] deals with T1, Synaptic vesicular amine transporter. Briefly: Displacement of [3H]DTBZ from VMAT2 dihydrotetrabenazine binding site in rat brain synaptic vesicle by scintillation counting. A general note: In a radioligand displacement assay an active substance lowers the binding of a labelled ligand.

Usually Ki stands for a dissociation constant, usually derived from enzyme kinetics or from competition with a known ligand. Read a high Ki as weaker binding. Regarding `COc1cc2c(cc1OC)C1CC(=O)C(CC(C)C)CN1CC2` (stereo not drawn) [TETRABENAZINE], the Ratio Ki in experiment [1] came to 0.24. Also, the Ki turned out to be 54 nM in experiment [2] and 13 nM in experiment [3].

Source of the values: ChEMBL document CHEMBL1155179 (J Med Chem, 2009).
